Sequences of proteins named here, by UniProt entry; tags and fusion partners are left off. Residues count along the entry.
UniProt P05067, 672-711 limits assumed: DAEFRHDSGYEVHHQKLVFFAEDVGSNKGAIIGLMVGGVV

In patent publication US8022075B2, “Diagnostic and remedy for disease caused by amyloid aggregation and/or deposition” (Fujifilm Ri Pharma Co., Ltd., priority 2005, dated 2011):

What was measured:
[1] = standard substances of liposolubility; values reported in the literature; cited from earlier work
[2] = molecular target: synthetic amyloid β (1-40) aggregates (Homo sapiens, UniProt P05067); experiment: Inhibition of binding of compound 23 to amyloid β protein aggregates; set-up: amyloid β (1-40) peptide hydrochloric acid salt; host or cells: chemically synthesised peptide; conditions: read-out: Inhibitory activity (n = 3) IC50 Mean ± S.D.; binding of 125I-labeled compound 23 to A β 1-40 aggregates; room temperature, three hours

Row | SMILES | LogD7.4 [1] | IC50 [2] [nM]
1 | Cc1nc2n(c(=O)c1CCN1CCC(c3noc4cc(F)ccc34)CC1)CCCC2 [Risperidon] | 2.04 | 
2 | Cc1ccc2c(c1)sc(-c1ccc(N(C)C)cc1)[n+]2C [Thioflavin T] |  | 895 ± 121
